Test results as given in PubChem BioAssay AID1135 (Sanford-Burnham Center for Chemical Genomics, 2008).
The list shows a part of the results, in another mix than the full data. Some of these compounds have results that are not shown, active ones among them. Activity calls are given as the source filed them.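 How the source made its calls: active means over 50% inhibition of tissue-nonspecific alkaline phosphatase at 20 µM in the single-dose screen; inactive means the rest.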

Sequences of proteins named here, by UniProt entry; tags and fusion partners are left off.
UniProt P05186, whole entry: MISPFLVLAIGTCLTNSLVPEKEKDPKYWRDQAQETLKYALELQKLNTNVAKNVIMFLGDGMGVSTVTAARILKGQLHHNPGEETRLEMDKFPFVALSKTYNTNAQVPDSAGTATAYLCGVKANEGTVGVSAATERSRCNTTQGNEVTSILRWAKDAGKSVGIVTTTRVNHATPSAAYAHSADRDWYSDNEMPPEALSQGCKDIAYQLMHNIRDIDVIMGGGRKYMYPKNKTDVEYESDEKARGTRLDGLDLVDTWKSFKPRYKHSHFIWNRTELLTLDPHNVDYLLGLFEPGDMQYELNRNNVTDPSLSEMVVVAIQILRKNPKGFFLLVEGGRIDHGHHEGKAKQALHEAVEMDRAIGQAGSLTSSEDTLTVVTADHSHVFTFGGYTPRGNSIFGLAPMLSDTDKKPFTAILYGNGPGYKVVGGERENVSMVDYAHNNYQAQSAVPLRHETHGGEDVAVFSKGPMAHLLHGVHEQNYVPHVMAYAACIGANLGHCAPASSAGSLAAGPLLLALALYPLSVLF

These molecules were tested against Alkaline phosphatase, tissue-nonspecific isozyme (Homo sapiens) (UniProt P05186) (assay: blockers of alkaline phosphatase TNAP activity – biochemical, luminescent, high phosphate acceptor level, uHTS, primary screen (AID 1135;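 further: plate controls were DMSO wells for no effect and EDTA-quenched wells as full inhibition for full effect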)). Conditions: purified TNAP, CDP-star luminescence, 1 M DEA; at 20 µM; hits give high values.

Question: `C=CCN1CCN(CCOC(=O)C(O)(c2ccccc2)c2ccccc2)CC1` was tested. Which inhibition did it give?
Answer: inactive: -5.7%

Question: Which inhibition does the source give for `CCN1CCCC(OC(=O)C2(O)c3ccccc3C=Cc3ccccc32)C1` (centres undefined) here?
Answer: inactive: -5.4%

Question: Which inhibition does the source give for `Cc1ccccc1C(=O)NCC1(N2CCCCC2)CCCCC1` here?
Answer: inactive: -7.2%

Question: With `CN(C)C1CCCC1OC(=O)C(O)(c1ccccc1)c1ccccc1` (centres undefined) as the molecule, how does the inhibition read?
Answer: inactive: -5%

Question: With `CC(C)N1C(=O)CC2(CCN(CCOC(=O)C(O)(c3ccccc3)c3ccccc3)CC2)C1=O` as the molecule, how does the inhibition read?
Answer: inactive: 1%

Question: Which inhibition does the source give for `O=C(NCC1(N2CCCCC2)CCCCC1)c1cc([N+](=O)[O-])ccc1Cl` here?
Answer: inactive: -1.3%

Question: With `CN(C)c1cccc(C(=O)NCC2(N(C)C)CCCCC2)c1` as the molecule, how does the inhibition read?
Answer: inactive: -10.6%

Question: How did the inhibition turn out when `O=C(OC1CN2CCC1CC2)C(CO)(c1ccccc1)c1ccccc1` (centres undefined) was run?
Answer: inactive: -1.2%

Question: How did the inhibition turn out when `COc1cccc(C(=O)NCC2(N3CCCCC3)CCCCC2)c1` was run?
Answer: inactive: -2.9%
